The subject of one experiment is HCT-8. Put plainly: Inhibition of HCT-8 clonogenic growth in soft agar with pretreatment. In kind it is functional, cell-based. The settings on record: Homo sapiens.
Experiment [1] concerns the target Fibroblast growth factor receptor 1 (Homo sapiens, UniProt P11362). The experiment can be described thus: Inhibition of bFGFR.

Amino acid sequences for entries named in this document (tags omitted).
UniProt P11362, whole entry: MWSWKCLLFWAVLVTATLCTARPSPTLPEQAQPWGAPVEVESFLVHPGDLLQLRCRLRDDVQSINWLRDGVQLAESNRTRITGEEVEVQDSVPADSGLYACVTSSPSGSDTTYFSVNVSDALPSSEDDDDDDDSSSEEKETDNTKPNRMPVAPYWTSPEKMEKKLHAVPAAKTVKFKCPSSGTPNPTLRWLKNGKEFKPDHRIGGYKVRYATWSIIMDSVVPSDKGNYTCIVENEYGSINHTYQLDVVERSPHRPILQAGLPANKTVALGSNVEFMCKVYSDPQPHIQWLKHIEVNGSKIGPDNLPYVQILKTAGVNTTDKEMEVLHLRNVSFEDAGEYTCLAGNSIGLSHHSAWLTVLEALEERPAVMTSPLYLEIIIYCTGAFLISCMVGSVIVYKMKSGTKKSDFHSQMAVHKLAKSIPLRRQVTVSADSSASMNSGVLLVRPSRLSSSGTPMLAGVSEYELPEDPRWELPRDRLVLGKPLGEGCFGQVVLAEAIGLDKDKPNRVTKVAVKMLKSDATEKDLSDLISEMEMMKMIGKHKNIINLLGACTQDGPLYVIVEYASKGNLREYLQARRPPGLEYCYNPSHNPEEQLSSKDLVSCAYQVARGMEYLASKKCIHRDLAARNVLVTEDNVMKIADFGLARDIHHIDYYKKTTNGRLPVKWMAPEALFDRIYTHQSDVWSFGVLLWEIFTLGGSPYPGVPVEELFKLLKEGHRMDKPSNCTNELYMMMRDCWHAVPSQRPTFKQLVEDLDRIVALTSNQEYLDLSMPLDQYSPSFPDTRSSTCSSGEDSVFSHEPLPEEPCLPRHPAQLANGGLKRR

On to `Cn1c(=O)c(-c2c(Cl)cccc2Cl)cc2cnc(Nc3ccc(F)cc3)nc21`, for which the IC50 (usually the point on the concentration scale where inhibition reaches its midpoint) came out at 900 nM in the experiment on HCT-8 and 933 nM in experiment [1].
